Measurements from BindingDB's records for PubMed 9864265 (Second Tokushima Institute of New Drug Research, 1998).

By UniProt entry, the sequences of proteins in these tests, tags left out.
UniProt Q00788, whole entry: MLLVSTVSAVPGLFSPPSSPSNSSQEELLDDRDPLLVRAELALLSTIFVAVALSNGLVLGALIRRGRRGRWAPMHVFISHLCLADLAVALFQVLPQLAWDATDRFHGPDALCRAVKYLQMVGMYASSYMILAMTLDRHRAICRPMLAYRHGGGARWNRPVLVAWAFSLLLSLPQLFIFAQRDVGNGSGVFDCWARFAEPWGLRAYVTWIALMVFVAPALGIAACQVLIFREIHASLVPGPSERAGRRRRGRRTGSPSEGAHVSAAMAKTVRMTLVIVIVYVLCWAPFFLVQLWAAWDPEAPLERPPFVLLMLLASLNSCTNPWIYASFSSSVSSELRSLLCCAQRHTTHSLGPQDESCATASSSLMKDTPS

Molecular target: Vasopressin V2 receptor (Rattus norvegicus, UniProt Q00788)

NC(=O)CC[C@@H]1NC(=O)[C@H](Cc2ccccc2)NC(=O)[C@H](Cc2ccc(O)cc2)NC(=O)[C@@H](N)CSSC[C@@H](C(=O)N2CCC[C@H]2C(=O)N[C@@H](CCCN=C(N)N)C(=O)NCC(N)=O)NC(=O)[C@H](CC(N)=O)NC1=O [[3H]Argipressin tannate]
Ki: 0.95 nM
